PubChem BioAssay AID1894 (NMMLSC, 2009)
The list shows a part of the results, in another mix than the full data. Activity calls are given as the source filed them.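 The calls were made as follows: active = binding response below 72% of control, or above a set upper limit, though filed actives all read lower; inactive = the rest.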

By UniProt entry, the sequences of proteins in these tests, tags left out.
UniProt Q99759, whole entry: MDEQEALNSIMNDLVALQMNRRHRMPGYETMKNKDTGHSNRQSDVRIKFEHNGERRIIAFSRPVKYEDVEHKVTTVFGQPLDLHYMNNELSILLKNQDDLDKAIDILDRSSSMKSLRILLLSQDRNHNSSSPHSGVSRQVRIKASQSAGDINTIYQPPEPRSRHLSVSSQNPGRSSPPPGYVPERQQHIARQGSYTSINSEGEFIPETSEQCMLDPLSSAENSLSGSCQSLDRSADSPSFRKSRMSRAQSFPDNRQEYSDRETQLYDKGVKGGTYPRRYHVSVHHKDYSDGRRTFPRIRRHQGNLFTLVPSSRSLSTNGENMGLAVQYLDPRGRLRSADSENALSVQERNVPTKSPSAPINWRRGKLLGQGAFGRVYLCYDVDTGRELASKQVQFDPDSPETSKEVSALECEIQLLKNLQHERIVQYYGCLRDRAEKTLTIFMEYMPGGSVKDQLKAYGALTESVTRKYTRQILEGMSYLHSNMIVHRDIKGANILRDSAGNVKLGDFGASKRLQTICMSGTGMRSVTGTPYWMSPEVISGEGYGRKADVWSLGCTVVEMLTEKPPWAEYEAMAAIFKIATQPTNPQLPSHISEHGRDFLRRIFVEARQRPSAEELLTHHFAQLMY

biological target: Mitogen-activated protein kinase kinase kinase 3 (Homo sapiens) (UniProt Q99759); experiment: blockers of MEK5-MEKK3 PB1 association – biochemical, bead multiplex flow cytometry, single concentration, wildtype, confirmation (AID 1894); settings: Alexa488-MEK5 binding to MEKK3, at 10 µM, hits give low values;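 also: 100% = DMSO only wells and 0% = binding blocked by excess unlabeled MEK5; lower values mean stronger disruption of MEK5 binding to MEKK3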

Row | Compound | binding response (% of control)
1 | COc1ccccc1OP(C)(=O)Nc1c(C)cccc1C (stereo not drawn) | inactive: 103%
2 | CP(=O)(Nc1ccc(Cl)cc1)Oc1ccc(F)cc1 (stereo not drawn) | inactive: 103%
3 | CCN(CC)CCCOC(=O)C(O)(c1ccccc1)C1CCCCC1 (stereo not drawn) | inactive: 103%
